Test system: plasma protein
Experiment: Plasma protein binding by rapid equilibrium dialysis (RED), fraction unbound in plasma (fup)
Conditions: 5 μM, 4 hours at 37°C, This Work, below the limit of detection a default of 0.005 was assumed for modelling

Going from CCCCOP(=O)(OCCCC)OCCCC to Cc1cc([N+](=O)[O-])cc([N+](=O)[O-])c1O, the Rat.Funbound.plasma falls from 0.0257 to 0.023.

Compound O=[N+]([O-])c1cccc([N+](=O)[O-])c1 has a Rat.Funbound.plasma of 0.35.
